Laboratory results taken from PMC6410416 (Marine Drugs, 2019).

Sequences of proteins named here, by UniProt entry; tags and fusion partners are left off. Residues count along the entry.
UniProt A0A411L1L4, 22-255 limits assumed: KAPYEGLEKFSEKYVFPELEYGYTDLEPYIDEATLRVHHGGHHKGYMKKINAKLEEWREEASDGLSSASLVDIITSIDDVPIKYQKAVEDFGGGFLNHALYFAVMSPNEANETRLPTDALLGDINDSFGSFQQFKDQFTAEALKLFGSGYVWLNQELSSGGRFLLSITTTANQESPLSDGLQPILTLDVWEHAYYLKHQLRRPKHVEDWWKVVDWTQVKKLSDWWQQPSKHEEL

Target: Ps-Mn-SOD (Paelopatides sp. YL-2018, UniProt A0A411L1L4)
Experiment: residual SOD activity, SOD assay kit, […] nm
Settings: pre-incubated 1 h at 25 °C; SOD type test

[N-]=[N+]=N
relative activity at 10 mM: 90.39%
